For 48 molecules, EC50 and IC50 results are on record in patent US7157486B2, “Viral polymerase inhibitors” (Boehringer Ingelheim (Canada) Ltd., priority 2001, dated 2007).

The test system of the first experiment is Huh7 cells that stably maintain a subgenomic HCV replicon (S22.3 cell-line). Kind of experiment: Cell based HCV RNA replication assay (S22.3 replicon cells, real-time RT-PCR). The note with it: Hepatitis C virus, Huh-7, 72 h. The source says: Preparation of Test Compound
Application of Test Compound to Cells
Extraction of Total Cellular RNA
Quantification of Total Cellular RNA
In turn, `COC(=O)c1ccc2c(C3CCCCC3)c(-c3ccoc3)n(CC(=O)O)c2c1` [compound 114] yielded a 50% effective concentration (EC50) above 1000 nM.

In the next experiment the target is hepatitis C virus RNA dependant polymerase (NS5B) (Hepatitis C virus genotype 1b, UniProt P26663). Kind of experiment: biochemical.
Settings: not given
`Cn1c(-c2ccccc2)c(C2CCCCC2)c2ccc(C(=O)O)cc21` [compound 101] came in with an IC50 above 1000 nM.

The molecule `O=C(O)c1ccc2c(C3CCCCC3)c(-c3ccoc3)[nH]c2c1` [compound 102] came in with an IC50 above 1000 nM. Regarding `O=C(O)c1ccc2c(C3CCCCC3)c(-c3ccsc3)[nH]c2c1` [compound 104], the IC50 is above 1000 nM. The same measure, in the same setting: the figure for `O=C(O)c1ccc2c(C3CCCCC3)c(Br)[nH]c2c1` [compound 105] is above 1000 nM; for `Cn1c(-c2ccccn2)c(C2CCCCC2)c2ccc(C(=O)O)cc21` [compound 106] it is 500 to 1000 nM; for `Cn1c(-c2ccoc2)c(C2CCCCC2)c2ccc(C(=O)O)cc21` [compound 107] it is 500 to 1000 nM. With `Cc1ccc(-c2c(C3CCCCC3)c3ccc(C(=O)O)cc3n2C)nc1` [compound 108], the IC50 lay within 500 to 1000 nM. In the case of `Cn1c(-c2cnccn2)c(C2CCCCC2)c2ccc(C(=O)O)cc21` [compound 109], the IC50 is below 500 nM.

As for `O=C(O)c1ccc2c(C3CCCC3)c(-c3ccoc3)[nH]c2c1` [compound 110], the IC50 was below 500 nM. In the case of `Cn1c(-c2ccoc2)c(C2CCCC2)c2ccc(C(=O)O)cc21` [compound 111], the IC50 was below 500 nM.

`Cn1c(-c2cccc(N)n2)c(C2CCCCC2)c2ccc(C(=O)O)cc21` [compound 112] had an IC50 below 500 nM.

`Cn1c(-c2cccc(N)n2)c(C2CCCC2)c2ccc(C(=O)O)cc21` [compound 113] came in with an IC50 below 500 nM.

In turn, `COC(=O)c1ccc2c(C3CCCCC3)c(-c3ccoc3)n(CC(=O)O)c2c1` [compound 114] had an IC50 above 1000 nM.

`Cn1c(-c2ccccn2)c(C2CCCC2)c2ccc(C(=O)O)cc21` [compound 115] yielded an IC50 of 500 to 1000 nM. For `O=C(O)Cn1c(-c2ccoc2)c(C2CCCCC2)c2ccc(C(=O)O)cc21` [compound 116], the IC50 is below 500 nM. Still for that read-out and setting: to `Cn1c(-c2cscn2)c(C2CCCC2)c2ccc(C(=O)O)cc21` [compound 117] belongs below 500 nM; to `CC(=O)Nc1nc(-c2c(C3CCCC3)c3ccc(C(=O)O)cc3n2C)cs1` [compound 118], below 500 nM.

The molecule `CNc1nc(-c2c(C3CCCC3)c3ccc(C(=O)O)cc3n2C)cs1` [compound 119] registered an IC50 of 500 to 1000 nM. As for `CCNc1nc(-c2c(C3CCCC3)c3ccc(C(=O)O)cc3n2C)cs1` [compound 120], the IC50 was above 1000 nM.

Molecule `Cc1nc(-c2c(C3CCCC3)c3ccc(C(=O)O)cc3n2C)cs1` [compound 121] showed an IC50 of 500 to 1000 nM. Take `CCCNc1nc(-c2c(C3CCCC3)c3ccc(C(=O)O)cc3n2C)cs1` [compound 122]: the IC50 is above 1000 nM. As to `COCCNc1nc(-c2c(C3CCCC3)c3ccc(C(=O)O)cc3n2C)cs1` [compound 123], the IC50 is below 500 nM. As for `Cn1c(-c2csc(NC(=O)CC(C)(C)C)n2)c(C2CCCC2)c2ccc(C(=O)O)cc21` [compound 125], the IC50 was above 1000 nM. For the molecule `Cn1c(-c2csc(NC(=O)C(C)(C)C)n2)c(C2CCCC2)c2ccc(C(=O)O)cc21` [compound 126], the IC50 is above 1000 nM. In the case of `CN(C)CCNc1nc(-c2c(C3CCCC3)c3ccc(C(=O)O)cc3n2C)cs1` [compound 127], the IC50 is below 500 nM. Take `Cn1c(-c2cnco2)c(C2CCCC2)c2ccc(C(=O)O)cc21` [compound 128]: the 50% inhibitory concentration (IC50) was below 500 nM. For the molecule `Cn1c(-c2nccs2)c(C2CCCC2)c2ccc(C(=O)O)cc21` [compound 129], the IC50 was 500 to 1000 nM.

For `Cn1c(-c2cccc(N)c2)c(C2CCCC2)c2ccc(C(=O)O)cc21` [compound 130], the IC50 is above 1000 nM.

Regarding `Cn1c(-c2ccc(N)cc2)c(C2CCCC2)c2ccc(C(=O)O)cc21` [compound 131], the IC50 is 500 to 1000 nM. Regarding `Cn1c(-c2ccsc2)c(C2CCCC2)c2ccc(C(=O)O)cc21` [compound 132], the IC50 is below 500 nM. The molecule `Cc1cccc(-c2c(C3CCCC3)c3ccc(C(=O)O)cc3n2C)n1` [compound 133] gave an IC50 of 500 to 1000 nM. For `Cc1ccc(-c2c(C3CCCC3)c3ccc(C(=O)O)cc3n2C)cn1` [compound 134], the IC50 was 500 to 1000 nM.

`Cn1c(-c2cnccn2)c(C2CCCC2)c2ccc(C(=O)O)cc21` [compound 135] came in with an IC50 below 500 nM. The same measure, in the same setting: the figure for `Cn1c(-c2ccc(Br)cn2)c(C2CCCC2)c2ccc(C(=O)O)cc21` [compound 136] is 500 to 1000 nM. `Cn1c(-c2ccc([N+](=O)[O-])cn2)c(C2CCCC2)c2ccc(C(=O)O)cc21` [compound 137]: the 50% inhibitory concentration (IC50) is 500 to 1000 nM. Take `O=C(O)c1ccc2c(C3CCCC3)c(-c3ccccn3)sc2c1` [compound 138]: the IC50 was above 1000 nM. Molecule `Cn1c(-c2csc(N)n2)c(C2CCCCC2)c2ccc(C(=O)O)cc21` [compound 139] came in with an IC50 below 500 nM. In turn, `O=C(O)c1ccc2c(C3CCCC3)c(-c3ccccn3)oc2c1` [compound 141] yielded an IC50 above 1000 nM. As to `O=C(O)c1ccc2c(C3CCCCC3)c(-c3ccccn3)[nH]c2c1` [compound 142], the IC50 was above 1000 nM.

In turn, `O=C(O)Cn1c(-c2ccccn2)c(C2CCCCC2)c2ccc(C(=O)O)cc21` [compound 143] yielded an IC50 of 500 to 1000 nM. Same read-out and setting: the figure for `Cn1c(-c2ccc(Cl)cn2)c(C2CCCC2)c2ccc(C(=O)O)cc21` [compound 144] is above 1000 nM; for `O=C(O)c1ccc2c(C3CCCC3)c(-c3ccccn3)[nH]c2c1` [compound 145] it is above 1000 nM. Still for that read-out and setting: the figure for `CC(C(=O)O)n1c(-c2ccc(Br)cn2)c(C2CCCCC2)c2ccc(C(=O)O)cc21` (stereo not shown) [compound 146] is above 1000 nM.

`COc1ccc(-c2c(C3CCCC3)c3ccc(C(=O)O)cc3n2C)nc1` [compound 147]: the half-maximal inhibitory concentration (IC50) was above 1000 nM. `Cn1c(-c2ccc(F)cn2)c(C2CCCC2)c2ccc(C(=O)O)cc21` [compound 148] came in with an IC50 of 500 to 1000 nM. Take `O=C(O)Cn1c(-c2ccc(Br)cn2)c(C2CCCCC2)c2ccc(C(=O)O)cc21` [compound 149]: the IC50 was in the range of 500 to 1000 nM. Same read-out and setting: the figure for `Cn1c(-c2ccccc2)c(C2CCCCC2)c2ccc(C(=O)O)nc21` [compound 201, 3-Cyclohexyl-1-methyl-2-phenyl-1H-pyrrolo[2,3,b]pyridine-6-carboxylic acid] is above 1000 nM; for `Cn1c(-c2ccoc2)c(C2CCCCC2)c2ccc(C(=O)O)nc21` [compound 202] it is above 1000 nM.
